Read-outs that look alike come from different tables or passages of the source. Each block holds one compound with its values, some of them ahead of it.
Experiments:
[1] = remark: listed apart in the source
Procedure: 30 μL of DMSO stock solution (200 mM) of the compound P6 (4-(piperidine-1-methylene)-2,5-dimethyl-3-hydroxymethylene-^1H-pyrrole) was added to 2970 μL of the acidic buffer solution (pH=2.0-3.0).
After being mixed well, tests of the time-dependent ultraviolet-visible absorption spectrum and fluorescence spectrum were performed (2 h).

[2] = not given; remark: listed apart in the source
[3] = pH 2.0, 2 h, excitation 600 nm
[4] = 2 hours
[5] = glycerol content increased from 0% to 90%, 2 mM, emission 680 nm
[6] = In vivo imaging with laparotomy; design: species or system Balb/c nude mice; conditions: opened abdomen, gavage of 1.5 mg in 70 μL water, imaged until 120 min
Excerpt: The mice were anesthetized beforehand, and the gastrointestinal tract was then exposed by a single incision in the abdomen of the mice.

time for conversion into the radical cation ([1]; acidic buffer solution pH=2.0-3.0, atmosphere of air): ≤ 30 min
Compound: COc1ccc(-n2c(C)cc(CO)c2C)cc1 [P7, 1-(4-methoxyphenyl)-2,5-dimethyl-3-hydroxymethylene-^1H-pyrrole]
gastrointestinal imaging effect (compared with P3^⋅+): not as good as that of P3^⋅+

effect of interferents on fluorescence ([3]; metal ions, common anti-oxidizing agents and carbohydrates): would not affect
effect of interferents on fluorescence ([3]; some proteins): significantly increased
absorption peak ([1]; acidic buffer solution pH 2.0): 600 nm
fluorescence emission peak ([1]; acidic buffer solution pH 2.0): 680 nm
time for conversion into the radical cation ([1]; acidic buffer solution pH 2.0, air, seen from absorption peak (570 nm converted into 600 nm)): ≤ 5 min
conversion into the radical cation ([1]; acidic buffer solution pH=2.0-2.6, atmosphere of air): rapidly converted
fluorescence lifetime (fitting value) [5]: gradually increased
ratio of relative fluorescence intensity (I/I0) ([5]; excitation 600 nm): gradually increased
Compound: Cc1cc(CO)c(C)n1-c1ccccc1 [P3, 2,5-dimethyl-3-hydroxymethylene-1-phenyl-^1H-pyrrole]
time for gastric emptying ([2]; rise paste group (1.5 mg in 150 μL)): > 180 min
attenuation of gastric fluorescence signal ([2]; rise paste group (1.5 mg in 150 μL), within 180 min): no obvious attenuation
time at which the stomach was emptied ([2]; water group (1.5 mg in 70 μL)): 180 min
fluorescence signal in the intestinal tract ([2]; water group (1.5 mg in 70 μL), 180 min): only a weak fluorescence signal
fluorescence signal in the stomach (10 min after gavage of 1.5 mg in 70 μL water, 590 nm/700 nm): obvious near-infrared fluorescence signal
fluorescence signal in the intestinal region (180 min after gavage of 1.5 mg in 70 μL water, 590 nm/700 nm): obvious near-infrared fluorescence signal
in vivo fluorescence signal ([4]; anti-acid group: sodium bicarbonate tablet 250 mg kg^-1 oral before P3): not any fluorescence signal
in vivo fluorescence signal ([4]; gavage in acidic buffer solution (200 μL, pH 2.0)): a fluorescence signal can be generated
in vivo fluorescence signal ([4]; gavage in neutral buffer solution (200 μL, pH 7.0)): not any signal
in vivo fluorescence signal ([4]; normal group: normal saline 1 h before P3): strong fluorescence signal
intestinal fluorescence signal [6]: increases with time
time of strongest fluorescence signal in the stomach [6]: 20 min

From US20250305953A1, “LIGHT-EMITTING RADICAL CATION PROBE IN SITU GENERATED BY ACID INDUCTION, AND PREPARATION THEREFOR AND APPLICATION THEREOF” (SOUTH CHINA UNIVERSITY OF TECHNOLOGY, priority 2022, published 2025)
